# scFv variants of Ab-14 (heavy chain) against a SARS-CoV-2 spike peptide

Source: Li et al. 2023 (doi:10.1038/s41467-023-39022-2), MIT Lincoln Laboratory and A-Alpha Bio; data file from the FLAb repository.

The target is the same throughout: PDVDLGDISGINAS, from the HR2 region of SARS-CoV-2 spike.

Ab-14 is the parent antibody, in scFv form: VH, then the linker GGGGSGGGGSGGGGS, then VL. The light chain is unchanged in all variants.
VH: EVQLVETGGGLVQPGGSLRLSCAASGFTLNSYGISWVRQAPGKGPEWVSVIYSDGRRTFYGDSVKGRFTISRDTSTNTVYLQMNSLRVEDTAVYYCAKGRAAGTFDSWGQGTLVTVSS
VL: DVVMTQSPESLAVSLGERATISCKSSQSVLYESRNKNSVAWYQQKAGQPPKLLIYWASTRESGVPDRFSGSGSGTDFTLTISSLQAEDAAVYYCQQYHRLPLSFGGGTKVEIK

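Phage display of a naive human antibody library on the peptide gave the parent. This is the validation round: designs drawn from the data on random variants, tested in the same kind of assay. Group labels follow the data file (Ctrl: baseline library sampled from a position-specific scoring matrix, with some repeated check sequences; En: ensemble of fine-tuned language models; GP: Gaussian process model; GPLM: also part of the Gaussian process libraries; HC: hill climbing; Gen: genetic algorithm; Gibbs: Gibbs sampling; a sequence that several methods proposed may carry one label only). The scFvs were displayed on barcoded MATa yeast, the peptide on MATalpha yeast. Binding brings cells together so that they mate, and sequencing counts the barcode pairs among the diploids. Scores were corrected for input abundance and mapped to Kd with protein pairs of known affinity run in the same pool. Each pool was mated in six replicate cultures.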

Each variant is given by its three heavy chain CDRs, as the data file delimits them; those of the parent are GFTLNSYGIS, VIYSDGRRTFYGDSVK, GRAAGTFDS.
The Kd shown is the geometric mean over detected replicates; a lower Kd is a better binder.
An entry "no signal" has no value in the source: the pair was not observed among the diploids in any replicate. This suggests poor binding but is not conclusive.
The authors' rule: three or more of the six replicates give a measured affinity, fewer mean a poor binder.

CDR-H1,CDR-H2,CDR-H3,group,Kd,seen in
GFTLNEYGIS,VIYSDGRRTFYSDDVK,GEAAGTFKS,GP_HC,3.6 nM,4/6
GFDLDEYGIS,VIYADGQRTAYADDVK,GENAGTFDI,En_Gen,810 pM,6/6
GFDLDEYGIS,VIYADGKRTAYADSVK,GNVAGTFDA,En_Gen,4.7 nM,6/6
GFQIDEYGIS,VIYADGQRSAYSENVK,GQHGGMTVA,En_Gibbs,no signal,0/6
GFTLNSYGIS,VIYSDGRRTFYQDSVK,GKAAGTFDS,Ctrl,9.9 nM,2/6
GFELNDYGIS,VIYSDGRRTVYIDSVK,GRAAGTFDS,GP_HC,57 nM,6/6
GFDLNEYGIS,VIYADGKRTAYADSVK,GGNAGTFDL,En_Gen,370 pM,6/6
GFTLVSYGIS,VIYSDGRRVFYGDSVK,GRAAGTFDS,Ctrl,no signal,0/6
GFTLESYGIS,VIYSDGRRTFYGDSVK,GRAAGTFTV,GP_HC,no signal,0/6
GFDLEEYGIS,VIYADGLRTYYDDNFK,GWNSGTIFV,En_Gibbs,no signal,0/6
GFDINEYGIS,VIYADGRRTFYADSVK,GETAGTFDV,En_HC,320 pM,6/6
GFDLNEYGIS,VIYADGKRTAYSDSVK,GNNAGTFDL,En_Gen,410 pM,6/6
GFNLNSYGIS,VIYSDGRRTFYQDRVK,GQTAGTFDS,GP_Gibbs,130 nM,3/6
GFDLDEMGIS,VIYADGRRTAYSNAVK,GNNVYGLMS,En_Gibbs,no signal,0/6
GFTLDSYGIS,VIYSDGRRTFYIDSVK,GQLAGTFDS,GP_HC,54 nM,5/6
GFSLNSYGIS,VIYSDGRRTFYGDSVK,GRNAGTFDT,GPLM_Gen,840 pM,6/6
GFTLNSYGIS,VIYADGRRTFYIDSVK,RRAAGTFPS,Ctrl,no signal,0/6
GFTLNEYGIS,VIYSDGKRTFYGDSVK,GRAAGTFIF,GPLM_HC,89 nM,1/6
GFNLNSYGIS,VIYSDGQRTFYSDSVK,GRAAGTFSS,Ctrl,110 nM,6/6
GFTLNSYGIS,VIYSDGYRTFYGDSVK,GRAPGTFDS,Ctrl,no signal,0/6
GFTLESYGIS,VIYSDGRRTFYSDSVK,GRAGGTFDT,GPLM_HC,120 nM,5/6
GFDLNEYGIS,VIYADGRRTAYSDSVK,GENAGTFDL,En_Gen,620 pM,6/6
GFTLQSYGIS,VIYADGRRTFYGDSVK,GRKATTFDS,Ctrl,960 pM,6/6
GFSLNEYGIS,VIYSDGRRTFYGDSVK,GITAGTFDS,GPLM_Gibbs,940 pM,6/6
GFWLNEYGIS,VIYSDGRRTFYGDSVK,GSAAGTFDS,GP_Gen,10 nM,6/6
GFNLDEYGIS,VIYADGIRTAYKDKVK,GDDILLGWF,En_Gibbs,no signal,0/6
GFSLNEYGIS,VIYSDGRRTFYGDQVK,GRTAGTFFS,GP_Gibbs,12 nM,1/6
GFDLNEYGIS,VIYADGIRTAYSDSVK,GNVAGTFDV,En_Gen,410 pM,6/6
GFNLDEYGIS,VIYADGRRTFYQDSVK,GEVAGTFDT,En_HC,70 pM,6/6
GFDLNEYGIS,VIYADGMRTMYADSVK,GQNAGTFDV,En_Gen,310 pM,6/6
GFDLNEYGIS,VIYADGSRTFYSDSVK,GNQAGTFDK,En_HC,490 pM,6/6
GFTLNSYGIS,VMYSDGRRTFYLDSVK,GLAAGTFHL,Ctrl,no signal,0/6

Further variants, results first:

Kd,seen in,CDR-H1,CDR-H2,CDR-H3,group
160 nM,1/6,GFTLNSYGIS,VIYSDGVRTFYSDSVK,GRAMGTFDS,GP_HC
51 nM,5/6,GFWLNDYGIS,VIYSDGRRTFYIDSVK,GRAAGTFDS,GPLM_Gen
1.6 nM,6/6,GFSLNSYGIS,VIYSDGRRTFYGDNVK,GEAAGTFDK,GP_Gen
1.2 nM,6/6,GFDLNSYGIS,VIYSDGRRTFYQDRVK,GREAGTFDS,GP_Gibbs
3.1 nM,6/6,GFTLNDYGIS,VIYSDGRRTFYGDSVK,GRVAGTFES,GP_HC
140 pM,6/6,GFNLDEYGIS,VIYADGRRKFYADSVK,GNTAGTFDV,En_HC
50 nM,6/6,GFKLNSYGIS,VIYSDGRRTFYGDSVK,GQTAGTFDS,GPLM_Gen
1.8 nM,6/6,GFDLNSYGIS,VIYSDGRRTSYGDSVK,GRLAGTFDS,Ctrl
35 nM,1/6,GFDIDEYGVS,VIYADGFREAYAESVK,GLIQFGFTV,En_Gibbs
210 pM,6/6,GFDLNEYGIS,VIYADGKRTAYADSVK,GSVAGTFDV,En_Gen
30 nM,6/6,GFTLNEMGIS,VIYSDGRRTFYTDSVK,GRFAGTFDS,GPLM_HC
10 nM,6/6,GFPLNSYGIS,VIYSDGRRTFYDDSVK,GQLAGTFDS,GPLM_HC
540 nM,1/6,GFDIEEYGIS,VIYADGLRQAYKDNFK,GWNDGTIDV,En_Gibbs
810 pM,6/6,GFDLNEYGIS,VIYADGQRSFYADSVK,GQNAGTFDV,En_HC
1.9 nM,6/6,GFDLNSYGIS,VIYSDGRRTFYADSVK,GREAGTFDS,GPLM_Gen
28 nM,3/6,GFTLNSYGIS,VIYSDGRRTFYCDSVK,GQVAGTFDS,GP_HC
61 nM,2/6,GFDLNSYGIS,VIYSDGMRTFYGDWVK,GRTAGTFDS,GP_Gibbs
610 pM,6/6,GFDLNEYGIS,VIYADGMRTYYADSVK,GNNAGTFDL,En_Gen
320 pM,6/6,GFDLNEYGIS,VIYADGMRTAYIDSVK,GEIAGTFDS,En_HC
1.9 nM,6/6,GFDLDKYGIS,VIYADGRRKAYQTQFK,GGQTGTFDI,En_Gibbs
380 pM,6/6,GFDLDEYGIS,VIYADGKRKAYADSVK,GENAGTFDV,En_Gen
no signal,0/6,GITLNEYGIS,VIYSDGRRTFYTDSVK,GRTAGTFDS,GPLM_HC
8.1 nM,6/6,GFTLNEYGIS,VIYSDGRRTFYGDSVK,GRMAGTFDT,GPLM_HC
2.5 nM,6/6,GFELNSYGIS,VIYSDGRRTFYGDSVK,GRIAGTFDT,GPLM_Gibbs
230 pM,6/6,GFDLNEYGIS,VIYADGRRTFYSDSVK,GTVGGTFDM,En_HC
380 pM,6/6,GFDLNEYGIS,VIYADGRRTFYSDSVK,GNVAGTFDT,En_HC
980 nM,2/6,GFNLAEYGIS,VIYADGRRVAYANAVK,GKNGMNFSF,En_Gibbs
1.5 nM,6/6,GFDLESYGIS,VIYADGRRTFYSDSVK,GENAGTFDV,En_HC
22 nM,6/6,GFTLNSYGIS,VIYSDGRRTFYHDSVK,GQLAGTFDD,GP_HC
no signal,0/6,GFTRNDFGIS,VIYSDGRRTFYGDSVK,GRAAGTFDS,Ctrl
260 pM,6/6,GFDLNEYGIS,VIYADGRRTAYTDSVK,GHAAGTFDI,En_HC
820 nM,3/6,GFDINEYGIS,VMYADGSRSVYQDKVK,GFQGGTLDM,En_Gibbs
320 pM,6/6,GFNLDEYGIS,VIYADGRRTFYADSVK,GQIAGTFDV,En_HC

A selection of 10 entries from above:

CDR-H1,CDR-H2,CDR-H3,group,Kd,seen in
GFDLNEYGIS,VIYADGRRTFYSDSVK,GNVAGTFDT,En_HC,380 pM,6/6
GFTLNSYGIS,VIYSDGYRTFYGDSVK,GRAPGTFDS,Ctrl,no signal,0/6
GFDLDKYGIS,VIYADGRRKAYQTQFK,GGQTGTFDI,En_Gibbs,1.9 nM,6/6
GFNLNSYGIS,VIYSDGQRTFYSDSVK,GRAAGTFSS,Ctrl,110 nM,6/6
GFDLNEYGIS,VIYADGRRTFYSDSVK,GTVGGTFDM,En_HC,230 pM,6/6
GFDLNEYGIS,VIYADGKRTAYADSVK,GGNAGTFDL,En_Gen,370 pM,6/6
GFTLQSYGIS,VIYADGRRTFYGDSVK,GRKATTFDS,Ctrl,960 pM,6/6
GFDLNEYGIS,VIYADGMRTYYADSVK,GNNAGTFDL,En_Gen,610 pM,6/6
GFSLNEYGIS,VIYSDGRRTFYGDQVK,GRTAGTFFS,GP_Gibbs,12 nM,1/6
GFTLNSYGIS,VIYSDGRRTFYQDSVK,GKAAGTFDS,Ctrl,9.9 nM,2/6

Nonspecific signal, from three strains lacking the peptide, appeared in 1% of pairings of all heavy chain designs, centred on 120 nM (5% of these signals below 7.0 nM); values are not corrected for it.
The range of this assay differs from that of the first round, and the authors advise against merging the two.